# Results published in ChEMBL document CHEMBL1926644, “Novel substrate-based inhibitors of human glutamate carboxypeptidase II with enhanced lipophilicity” (J Med Chem, 2011).
# Tests used:
# Type in all cases: cell-based
# [1] = substrate: CCCCCCCC(NC(=O)[C@H](CC(=O)O)NC(C)=O)C(=O)O; assay: (§1) Activity of recombinant human glutamate carboxypeptidase 2 K699S mutant expressed in Drosophila Schneider's S2 cells using [3H]NAAG as substrate after 30 mins
# [2] = substrate: CSCC[C@H](NC(=O)[C@H](CC(=O)O)NC(C)=O)C(=O)O; assay: as §1
# [3] = substrate: CCCCCCCC(NC(=O)[C@H](CC(=O)O)NC(C)=O)C(=O)O; assay: (§2) Ratio of Kcat to Km recombinant human glutamate carboxypeptidase 2 K699S mutant expressed in Drosophila Schneider's S2 cells using [3H]NAAG as substrate after 30 mins
# [4] = substrate: CSCC[C@H](NC(=O)[C@H](CC(=O)O)NC(C)=O)C(=O)O; assay: as §2
protein,measurement,setting,value
"Glutamate carboxypeptidase 2 (Homo sapiens), Q04609 K699S (protein) MWNLLHETDSAVATARRPRWLCAGALVLAGGFFLLGFLFGWFIKSSNEATNITPKHNMKAFLDELKAENIKKFLYNFTQIPHLAGTEQNFQLAKQIQSQWKEFGLDSVELAHYDVLLSYPNKTHPNYISIINEDGNEIFNTSLFEPPPPGYENVSDIVPPFSAFSPQGMPEGDLVYVNYARTEDFFKLERDMKINCSGKIVIARYGKVFRGNKVKNAQLAGAKGVILYSDPADYFAPGVKSYPDGWNLPGGGVQRGNILNLNGAGDPLTPGYPANEYAYRRGIAEAVGLPSIPVHPIGYYDAQKLLEKMGGSAPPDSSWRGSLKVPYNVGPGFTGNFSTQKVKMHIHSTNEVTRIYNVIGTLRGAVEPDRYVILGGHRDSWVFGGIDPQSGAAVVHEIVRSFGTLKKEGWRPRRTILFASWDAEEFGLLGSTEWAEENSRLLQERGVAYINADSSIEGNYTLRVDCTPLMYSLVHNLTKELKSPDEGFEGKSLYESWTKKSPSPEFSGMPRISKLGSGNDFEVFFQRLGIASGRARYTKNWETNKFSGYPLYHSVYETYELVEKFYDPMFKYHLTVAQVRGGMVFELANSIVLPFDCRDYAVVLRKYADKIYSISMKHPQEMKTYSVSFDSLFSAVKNFTEIASKFSERLQDFDKSNPIVLRMMNDQLMFLERAFIDPLGLPDRPFYRHVIYAPSSHNSYAGESFPGIYDALFDIESKVDPSKAWGEVKRQIYVAAFTVQAAAETLSEVA",Km,[1],2.9 µM
same,kcat,[1],0.37 s⁻¹
same,Km,[2],2.6 µM
same,kcat,[2],0.25 s⁻¹
same,kcat/Km,[3],128000 M⁻¹ s⁻¹
same,kcat/Km,[4],96200 M⁻¹ s⁻¹
